Measurements as given in ChEMBL document CHEMBL4840339, “A naphthyridine-indole ligand for selective stabilization of G-quadruplexes and conformational conversion of hybrid topology” (Bioorg Med Chem, 2021).

Tests used:
Assay type in all cases: nucleic-acid assay
Quadruplex DNA [1] = assay: Binding affinity to c-MYC G4 quadruplex DNA (unknown origin) assessed as fold increase in fluorescence intensity at 5 uM measured after 24 hrs by fluorescence titration assay
dsDNA = assay: Binding affinity to dsDNA (unknown origin) assessed as fold increase in fluorescence intensity at 5 uM measured after 24 hrs by fluorescence titration assay
Quadruplex DNA [2] = assay: Binding affinity to c-KIT1 G4 quadruplex DNA (unknown origin) assessed as fold increase in fluorescence intensity at 5 uM measured after 24 hrs by fluorescence titration assay
Quadruplex DNA [3] = assay: Binding affinity to BCL2 G4 quadruplex DNA (unknown origin) assessed as fold increase in fluorescence intensity at 5 uM measured after 24 hrs by fluorescence titration assay
Quadruplex DNA [4] = assay: Binding affinity to Tel23 G4 quadruplex DNA (unknown origin) assessed as fold increase in fluorescence intensity at 5 uM measured after 24 hrs by fluorescence titration assay
Quadruplex DNA [5] = assay: Binding affinity to Tel26 G4 quadruplex DNA (unknown origin) assessed as fold increase in fluorescence intensity at 5 uM measured after 24 hrs by fluorescence titration assay

Work on CN(C)CCOc1ccc2c(ccn2-c2ccc3ccc(-n4ccc5cc(OCCN(C)C)ccc54)nc3n2)c1 yielded a fold change (FC) (Quadruplex DNA [1]) of 109, a fold change (FC) (dsDNA) of 29 and a fold change (FC) (Quadruplex DNA [2]) of 109. For the same molecule, the fold change (FC) (Quadruplex DNA [3]) was 109, the fold change (FC) (Quadruplex DNA [4]) was 109 and the fold change (FC) (Quadruplex DNA [5]) was 109.
